These are literature values, as cited in patent US5206260A, “Hexahydropyrrolo[2,3-b]indole derivatives” (priority 1991, dated 1993).

Structures are written as SMILES.

The conditions of the data set: background statement; cited from earlier work.

In the case of `CNC(=O)Oc1ccc2c(c1)[C@]1(C)CCN(C)[C@@H]1N2C` [physostigmine, trimethyl-1,3a,8-hexahydro-1,2,3,3a,8,8a-pyrrol[2,3-b]indole-5(3aS,8aR)methylcarbamate], the oral bioavailability result is “poor oral bioavailability”.
